Measured values published in patent publication US9725439B2, “Quinazoline derivative and preparation method therefor” (CHIA TAI TIANQING PHARMACEUTICAL GROUP CO., LTD., priority 2013, dated 2017).

Sequences of proteins named here, by UniProt entry; tags and fusion partners are left off. Residues count along the entry.
UniProt P00533, 25-1210 T790M/L858R: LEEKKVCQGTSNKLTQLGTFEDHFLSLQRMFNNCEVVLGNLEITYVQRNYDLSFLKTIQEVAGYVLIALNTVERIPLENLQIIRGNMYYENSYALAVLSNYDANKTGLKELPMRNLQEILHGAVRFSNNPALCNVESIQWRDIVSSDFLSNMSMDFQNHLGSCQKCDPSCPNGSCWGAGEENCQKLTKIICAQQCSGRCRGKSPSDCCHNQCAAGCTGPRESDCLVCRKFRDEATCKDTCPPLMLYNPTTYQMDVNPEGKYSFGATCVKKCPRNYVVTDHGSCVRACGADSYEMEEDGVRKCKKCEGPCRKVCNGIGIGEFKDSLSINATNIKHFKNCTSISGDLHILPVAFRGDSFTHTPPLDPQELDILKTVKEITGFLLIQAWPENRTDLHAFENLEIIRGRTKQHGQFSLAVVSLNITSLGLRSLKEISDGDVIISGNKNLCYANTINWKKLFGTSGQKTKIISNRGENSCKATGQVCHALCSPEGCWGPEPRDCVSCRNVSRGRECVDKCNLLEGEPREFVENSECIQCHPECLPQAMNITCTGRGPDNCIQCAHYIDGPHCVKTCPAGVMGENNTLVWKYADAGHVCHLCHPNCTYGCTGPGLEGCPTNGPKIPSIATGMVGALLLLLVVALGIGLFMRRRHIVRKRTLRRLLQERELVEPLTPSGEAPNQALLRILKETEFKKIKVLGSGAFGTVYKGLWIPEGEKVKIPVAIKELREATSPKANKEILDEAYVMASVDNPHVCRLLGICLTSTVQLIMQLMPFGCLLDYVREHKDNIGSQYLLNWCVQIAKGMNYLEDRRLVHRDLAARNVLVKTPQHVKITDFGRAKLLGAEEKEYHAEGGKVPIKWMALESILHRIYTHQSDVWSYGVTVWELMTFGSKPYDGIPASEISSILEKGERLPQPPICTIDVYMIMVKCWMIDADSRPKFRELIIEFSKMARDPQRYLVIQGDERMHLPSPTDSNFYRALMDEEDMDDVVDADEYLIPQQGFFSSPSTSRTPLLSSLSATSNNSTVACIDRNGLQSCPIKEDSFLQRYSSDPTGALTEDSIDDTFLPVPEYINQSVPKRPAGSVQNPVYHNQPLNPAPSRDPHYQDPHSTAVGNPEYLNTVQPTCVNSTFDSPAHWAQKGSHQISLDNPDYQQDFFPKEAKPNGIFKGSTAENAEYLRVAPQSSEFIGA
UniProt P00533, 25-1210: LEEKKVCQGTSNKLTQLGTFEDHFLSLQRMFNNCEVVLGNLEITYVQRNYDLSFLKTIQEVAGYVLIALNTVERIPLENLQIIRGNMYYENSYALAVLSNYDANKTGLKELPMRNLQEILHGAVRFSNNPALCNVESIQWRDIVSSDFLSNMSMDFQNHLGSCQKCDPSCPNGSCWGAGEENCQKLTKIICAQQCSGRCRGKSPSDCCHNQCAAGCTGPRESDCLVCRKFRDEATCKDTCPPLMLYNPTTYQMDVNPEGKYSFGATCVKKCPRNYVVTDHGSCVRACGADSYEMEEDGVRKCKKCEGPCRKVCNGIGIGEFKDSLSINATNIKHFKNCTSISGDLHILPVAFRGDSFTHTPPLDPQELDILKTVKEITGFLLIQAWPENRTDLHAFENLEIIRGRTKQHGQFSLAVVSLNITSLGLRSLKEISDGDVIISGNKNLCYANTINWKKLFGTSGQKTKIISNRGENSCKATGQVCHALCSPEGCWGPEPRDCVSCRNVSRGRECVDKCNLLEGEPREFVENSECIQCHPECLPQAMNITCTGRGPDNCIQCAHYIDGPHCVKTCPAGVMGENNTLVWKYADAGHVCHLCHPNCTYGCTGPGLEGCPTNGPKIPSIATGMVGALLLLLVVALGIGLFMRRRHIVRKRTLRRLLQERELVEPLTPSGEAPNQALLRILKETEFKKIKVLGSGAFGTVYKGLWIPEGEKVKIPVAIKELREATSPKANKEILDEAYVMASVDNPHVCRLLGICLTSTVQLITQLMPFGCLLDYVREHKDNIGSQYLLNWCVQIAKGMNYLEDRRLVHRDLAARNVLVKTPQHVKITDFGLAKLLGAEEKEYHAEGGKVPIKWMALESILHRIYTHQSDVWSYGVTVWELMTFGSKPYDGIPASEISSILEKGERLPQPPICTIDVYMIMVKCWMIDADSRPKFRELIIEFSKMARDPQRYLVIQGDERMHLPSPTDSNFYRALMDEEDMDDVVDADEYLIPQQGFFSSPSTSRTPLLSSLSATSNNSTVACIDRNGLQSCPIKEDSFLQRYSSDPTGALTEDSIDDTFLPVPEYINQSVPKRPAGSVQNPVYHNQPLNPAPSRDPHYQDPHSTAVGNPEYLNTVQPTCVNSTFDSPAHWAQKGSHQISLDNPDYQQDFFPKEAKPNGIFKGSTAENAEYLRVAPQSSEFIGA

Tests used:
[1] = target: EGFR (T790M, L858R) (Homo sapiens (Human), UniProt P00533, L858R/T790M); assay: In vitro enzymology test (HTRF kinase activity); type: biochemical; conditions: read-out: Enzyme activity (IC50 nM) EGFR-L858R/T790M
[2] = target: EGFR (Homo sapiens (Human), UniProt P00533); assay: In vitro enzymology test (HTRF kinase activity); type: biochemical; conditions: read-out: Enzyme activity (IC50 nM) EGFR

| SMILES | IC50 [1] | IC50 [2] |
| --- | --- | --- |
| C=CC(=O)N1CCC(Nc2cc3c(Nc4ccc(F)c(Cl)c4)ncnc3cc2OC)CC1 [Example 2, N^6-(1-acryloylpiperidin-4-yl)-N^4-(3-chloro-4-fluorophenyl)-7-methoxyquinazoline-4,6-diamine] | 2 nM | 0.2 nM |
| C=CC(=O)N1CCC(Nc2cc3c(Nc4ccc(F)c(Cl)c4)ncnc3cc2O[C@H]2CCOC2)CC1 [Example 4, (S)—N^6-(1-acryloylpiperidin-4-yl)-N^4-(3-chloro-4-fluorophenyl)-7-(tetrahydrofuran-3-yloxy)quinazoline-4,6-diamine] | 2.1 nM | 0.4 nM |
| C=CC(=O)N1CCC(Nc2cc3c(Nc4ccc(F)c(Cl)c4)ncnc3cc2O[C@H]2CCOC2)C1 (stereo partly drawn) [Example 6, (S)—N^6-(1-acryloylpyrrolidin-3-yl)-N^4-(3-chloro-4-fluorophenyl)-7-(tetrahydrofuran-3-yloxy)quinazoline-4,6-diamine] | 52.1 nM | – |
| C#Cc1cccc(Nc2ncnc3cc(OC)c(NC4CCN(C(=O)C=C)CC4)cc23)c1 [Example 10, N^6-(1-acryloylpiperidin-4-yl)-N^4-(3-ethynylphenyl)-7-methoxyquinazoline-4,6-diamine] | 8.6 nM | – |
| C=CC(=O)N1CCC(Nc2cc3c(Nc4cccc(Br)c4)ncnc3cc2OC)CC1 [Example 15, N^6-(1-acryloylpiperidin-4-yl)-N^4-(3-bromophenyl)-7-methoxyquinazoline-4,6-diamine] | 2.9 nM | 0.3 nM |
| C=CC(=O)N1CC(Nc2cc3c(Nc4ccc(F)c(Cl)c4)ncnc3cc2OCCOC)C1 [Example 16, N^6-(1-acryloylazetidin-3-yl)-N^4-(3-chloro-4-fluorophenyl)-7-(2-methoxyethoxy)quinazoline-4,6-diamine] | 1.2 nM | – |
| C=CC(=O)N1CCC(Nc2cc3c(Nc4ccc(F)c(Cl)c4)ncnc3cc2OCCOC)CC1 [Example 17, N^6-(1-acryloylpiperidin-4-yl)-N^4-(3-chloro-4-fluorophenyl)-7-(2-methoxyethoxy)quinazoline-4,6-diamine] | 1.2 nM | 0.2 nM |
| C=CC(=O)N1CC(Nc2cc3c(Nc4ccc(F)c(Cl)c4)ncnc3cc2OCCN2CCOCC2)C1 [Example 18, N^6-(1-acryloylazetidin-3-yl)-N^4-(3-chloro-4-fluorophenyl)-7-(2-morpholinylethoxy) quinazoline-4,6-diamine] | 11.1 nM | – |
